We go through one molecule from paper PMC8776733, “In vivo spatiotemporal control of voltage-gated ion channels by using photoactivatable peptidic toxins” (Nature Communications, 2022).

A value given as a limit tells only on which side of the number the result lay.

Data set [1] concerns the target T1, hNaV1.1 (Homo sapiens, UniProt P35498).
T1 construct: expressed in transfected cells
Put plainly: Automated patch-clamp, whole-cell Na+ current inhibition. It is filed as cell-based. The settings on record: currents elicited at 10 mV from holding potential -100 mV; Hill fit; read-out: IC50 for hNaV1.1 current inhibition (Fig. 2b). The procedure:
(§1) HEK293 cells stably expressing the hNaV1.1 (XM_011511604), hNaV1.2 (XM_017004655) or hNaV1.6 (XM_011538651) channels, CHO cells transiently expressing hKV1.2 (NG_027997.2) and CHO cells stably expressing hNaV1.7 (XM_011511618) or the hERG (NM_000238) channels were cultured in Dulbecco’s Modified Eagle’s Medium (DMEM) supplemented with 10% fetal bovine serum, 1 mM pyruvic acid, 4.5 g/L glucose, 4 mM glutamine, 800 µg/mL G418, 10 U/mL penicillin and 10 μg/mL streptomycin (Gibco, Grand Island, NY). All cell lines were incubated at 37 °C in a 5% CO2 atmosphere. For electrophysiological recordings, cells were detached with trypsin and floating single cells were diluted (~300,000 cells/mL) in medium contained (in mM): […], 4 KCl, 2 CaCl2, 1 MgCl2, 5 glucose, and 10 HEPES (pH 7.4, osmolarity 298 mOsm).
(§2) Automated patch-clamp recordings were performed using the SyncroPatch 384PE from Nanion (München, Germany). Chips with single-hole medium resistance of 4.52 ± 0.08 MΩ (n = 384) were used for recordings. Pulse generation and data collection were performed with the PatchControl384 v1.5.2 software (Nanion) and the Biomek v1.0 interface (Beckman Coulter). Whole-cell recordings were conducted according to the recommended procedures of Nanion. Cells were stored in a cell hotel reservoir at 10 °C with shaking speed at 60 RPM. After initiating the experiment, cell catching, sealing, whole-cell formation, liquid application, recording, and data acquisition were all performed sequentially and automatically. For sodium channel recordings, intracellular solution was (in mM): 10 CsCl, 110 CsF, 10 NaCl, 10 EGTA, and 10 HEPES (pH 7.2, osmolarity 280 mOsm), while being 10 KCl, 110 KF, 10 NaCl, 10 EGTA, and 10 HEPES (pH 7.2, osmolarity 280 mOsm) for potassium channel recordings. Extracellular solution was (in mM): 140 NaCl, 4 KCl, 2 CaCl2, 1 MgCl2, 5 glucose, and 10 HEPES (pH 7.4, osmolarity 298 mOsm). […] Current inhibition percentages were measured at equilibrium after 14 min peptide application time. […]
(In general: Patch clamp records ionic current or voltage across a cell membrane.)

For data set [2], the target named is T2, hNaV1.2 (Homo sapiens, UniProt Q99250).
T2 construct: expressed in transfected cells
Described as above. It is filed as cell-based. The conditions noted are these: currents elicited at 10 mV from holding potential -100 mV; Hill fit; read-out: IC50 for hNaV1.2 current inhibition (Fig. 2c). The procedure:
as §1, §2

Data set [3] deals with T3, hNaV1.6 (Homo sapiens, UniProt Q9UQD0).
T3 construct: expressed in transfected cells
Described as above. It is filed as cell-based. The settings on record: currents elicited at 10 mV from holding potential -100 mV; Hill fit; read-out: IC50 for hNaV1.6 current inhibition (Fig. 2a, Fig. 3g). The procedure: as §1, §2

Data set [4] can be described thus: Dark stability in solution. It is filed as physicochemical. The settings on record: in the dark (Supplementary Fig. 2).
Data set [5] has as its target T4, hNaV1.7 (Homo sapiens, UniProt Q15858).
T4 construct: expressed in transfected cells
Put plainly: Automated patch-clamp, whole-cell Na+ current inhibition. The format is cell-based. The conditions noted are these: currents elicited at 10 mV from holding potential -100 mV; Hill fit; read-out: IC50 for hNaV1.7 current inhibition (Fig. 2d).

The target in data set [6] is T3, hNaV1.6. Briefly: Photoactivation by UV illumination combined with automated patch-clamp. The conditions noted are these: 100 nM, no illumination. It is filed as cell-based. The procedure:
as §1
Automated patch-clamp recordings were performed using the SyncroPatch 384PE from Nanion (München, Germany). […] Current inhibition percentages were measured at equilibrium after 14 min peptide application time. […]
The pharmacology of HwTxIV-Nvoc, as well as the efficiency of the released product to block hNaV channels was studied using combined automated patch-clamp and UV illumination. After 2 min of control, HwTxIV-Nvoc was added to the external buffer and effects were recorded for 100 s prior to a 250 s-duration illumination for photocleavage induction of the caged compound. […]

The term IC50 denotes the midpoint of a concentration-inhibition curve. As to `CC[C@H](C)[C@@H]1NC(=O)CNC(=O)[C@H](CC(C)C)NC(=O)[C@@H](NC(=O)CN)CSSC[C@@H]2NC(=O)[C@@H]3CSSC[C@@H](C(=O)N[C@@H](CCCCNC(=O)OCc4cc(OC)c(OC)cc4[N+](=O)[O-])C(=O)N[C@@H](Cc4ccc(O)cc4)C(=O)N[C@@H](CCC(N)=O)C(=O)N[C@H](C(=O)N[C@@H](CCCCN)C(N)=O)[C@@H](C)CC)NC(=O)[C@H](Cc4c[nH]c5ccccc45)NC(=O)[C@H](CCCNC(=N)N)NC(=O)[C@H]([C@@H](C)O)NC(=O)[C@H](CCCCN)NC(=O)[C@H](CCCNC(=N)N)NC(=O)[C@H](CO)NC(=O)[C@H](CSSC[C@H](NC(=O)[C@H](C)NC(=O)[C@H](CCCCN)NC(=O)[C@H](Cc4ccccc4)NC1=O)C(=O)N[C@@H](CC(N)=O)C(=O)N1CCC[C@H]1C(=O)N[C@@H](CO)C(=O)N[C@@H](CC(N)=O)C(=O)N[C@@H](CC(=O)O)C(=O)N[C@@H](CCC(N)=O)C(=O)N3)NC(=O)[C@H](C(C)C)NC(=O)[C@H](CC(C)C)NC(=O)[C@H](CCCCN)NC(=O)[C@H](CO)NC(=O)[C@H](CO)NC(=O)[C@H](CCCCN)NC2=O` [HwTxIV-Nvoc], the IC50 in data set [1] came to 2.79 µM; in data set [2] it was 5.14 µM; in data set [3], 6.54 µM; in data set [5], 4.47 µM. Besides, in data set [4], the “dark stability in solution” value is recorded as > 1 week. Further, in data set [6], the “activity on hNaV1.6 currents before illumination” value is “inactive”.
